# Screens: PubChem BioAssay, ICCB-Longwood Screening Facility, Harvard Medical School
# GIV-Gai inh = GIV-Galpha-i interaction inhibition. 210,000 compounds, 0.42% hits. percent of control (FP), % (no concentration beside the values). Galpha-i3/FITC-GIV peptide fluorescence polarization, 90 min; active compounds read low; scaled: aluminum fluoride 0%, vehicle 100%. AID 1224905. P08753;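 active = replicate mean at 85% of control or lower, very high polarization wells dropped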;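 note: wells of about 15 µL received 100 nL stock; the first replicate is given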
# HCMV NEC inh = inhibitors of HCMV UL50-UL53 interaction, biochemical, HTRF. 190,000 tested, 0.15% active. HCMV UL50-UL53 nuclear egress complex (human cytomegalovirus). AID 1918969, 2023. normalized percent inhibition. inhibition, % (no concentration beside the values); in the data active = inhibition above about 27%, passing the limit was not always enough
# Active calls of the source: *; x = no result given; ! = not confirmed by another sample. An excerpt weighted towards active compounds, which were near 0.43% of everything screened.
[1] CC(C)C(=O)Nc1ccc(Cl)cc1C(=O)O
  GIV-Gai inh = 99
  HCMV NEC inh = -14
[2] CC(C)C(=O)Nc1ccc(N(C)C)cc1C(=O)O
  GIV-Gai inh = 99
  HCMV NEC inh = 51*
[3] COCCCN1C(=O)/C(=C/c2c(N3CCN(C)CC3)nc3c(C)cccn3c2=O)SC1=S
  GIV-Gai inh = 62*
  HCMV NEC inh = -45
[4] CCN1C(=O)/C(=C/c2c(N3CCCCC3)nc3ccccn3c2=O)SC1=S
  GIV-Gai inh = -75*
  HCMV NEC inh = 2
[5] CN1CCN(c2nc3ccccn3c(=O)c2/C=C2\SC(=S)N(Cc3ccco3)C2=O)CC1
  GIV-Gai inh = 162
  HCMV NEC inh = -11
[6] C=CCN1C(=O)/C(=C\c2cccs2)SC1=S
  GIV-Gai inh = x
  HCMV NEC inh = -16
[7] CC1CCN(c2nc3ccccn3c(=O)c2/C=C2/SC(=S)N(C3CCCCC3)C2=O)CC1
  GIV-Gai inh = 183
  HCMV NEC inh = x
[8] C=CCN1C(=O)/C(=C/c2c(Sc3ccccc3)nc3ccccn3c2=O)SC1=S
  GIV-Gai inh = -36*
  HCMV NEC inh = x
[9] Cc1cccn2c(=O)c(/C=C3\SC(=S)N(CCc4ccccc4)C3=O)c(N3CCCC3)nc12
  GIV-Gai inh = 104
  HCMV NEC inh = -9
[10] C=CCN1C(=O)/C(=C/c2c(N3CCCCC3)nc3ccccn3c2=O)SC1=S
  GIV-Gai inh = -36*
  HCMV NEC inh = x

[11] O=C(Cc1ccc(Cl)cc1)Nc1ccc2c(c1)NC(=O)CO2
  GIV-Gai inh = 104
  HCMV NEC inh = 4
[12] CCOc1ccc(NC(=O)Cn2c3ccccc3n3c(=O)cc(-c4ccccc4)nc23)cc1
  GIV-Gai inh = 105
  HCMV NEC inh = x
[13] Cc1noc(C)c1COc1ccc(C(=O)NCC2COc3ccccc3O2)cc1 (stereo not drawn)
  GIV-Gai inh = x
  HCMV NEC inh = -24
[14] CN(C)CCNc1oc(-c2ccc(Cl)cc2)nc1C#N
  GIV-Gai inh = x
  HCMV NEC inh = 7
[15] CC1CN2c3ccccc3C(C)(C)C2(/C=C/c2ccc(N(C)C)cc2)NC1=O (stereo not drawn)
  GIV-Gai inh = 108
  HCMV NEC inh = x
[16] CCCN1C(=O)/C(=C/c2c(N3CCCC3)nc3ccccn3c2=O)SC1=S
  GIV-Gai inh = -60*
  HCMV NEC inh = -36
[17] CCCCN1C(=O)/C(=C/c2c(N3CCN(CCO)CC3)nc3ccccn3c2=O)SC1=S
  GIV-Gai inh = 249
  HCMV NEC inh = x
[18] COCCN1C(=O)/C(=C/c2cc(OC)c(O)cc2Br)SC1=S
  GIV-Gai inh = -61*
  HCMV NEC inh = -39
[19] COc1cc(OC)c(OC)cc1/C=C1/SC(=S)N(CC(=O)O)C1=O
  GIV-Gai inh = 134
  HCMV NEC inh = -51
[20] CCOC(=O)c1oc2ccc(Br)cc2c1CSc1nnc(C(F)(F)F)n1C
  GIV-Gai inh = x
  HCMV NEC inh = 15

[21] Cc1nc(C)n2cc[nH]c(=O)c12
  GIV-Gai inh = 101
  HCMV NEC inh = x
[22] O=S(=O)(/N=C1\C=C2N(CCO)CCOC2(O)c2ccccc21)c1ccccc1 (stereo not drawn)
  GIV-Gai inh = 95
  HCMV NEC inh = x
[23] O=S(=O)(/N=C1\C=C2N(CCO)CCOC2(O)c2ccccc21)c1ccc(F)cc1 (stereo not drawn)
  GIV-Gai inh = 96
  HCMV NEC inh = 40*
[24] CN1C(=O)/C(=C/c2c(N3CCSCC3)nc3ccccn3c2=O)SC1=S
  GIV-Gai inh = 186
  HCMV NEC inh = -4
[25] C=CCNc1nc2ccccn2c(=O)c1/C=C1\SC(=S)N(C)C1=O
  GIV-Gai inh = -24*
  HCMV NEC inh = -36
[26] CCCN1C(=O)/C(=C/c2c(NCC)nc3ccccn3c2=O)SC1=S
  GIV-Gai inh = -75*
  HCMV NEC inh = -24
[27] C=CCNc1nc2ccccn2c(=O)c1/C=C1\SC(=S)N(Cc2ccc3c(c2)OCO3)C1=O
  GIV-Gai inh = -27*
  HCMV NEC inh = x
[28] C=CCNc1nc2ccccn2c(=O)c1/C=C1\SC(=S)N(CCOC)C1=O
  GIV-Gai inh = -75*
  HCMV NEC inh = -33
[29] O=C1/C(=C/c2c(NCc3ccccc3)nc3ccccn3c2=O)SC(=S)N1CC1CCCO1 (stereo not drawn)
  GIV-Gai inh = 264
  HCMV NEC inh = x
[30] O=C1/C(=C/c2c(NCCCn3ccnc3)nc3ccccn3c2=O)SC(=S)N1CC1CCCO1 (stereo not drawn)
  GIV-Gai inh = 260
  HCMV NEC inh = x

# Given with two lines to a compound: entries from further up
# Under each structure – GIV-Gai inh, HCMV NEC inh
27	C=CCNc1nc2ccccn2c(=O)c1/C=C1\SC(=S)N(Cc2ccc3c(c2)OCO3)C1=O
 : -27*, x
28	C=CCNc1nc2ccccn2c(=O)c1/C=C1\SC(=S)N(CCOC)C1=O
 : -75*, -33
29	O=C1/C(=C/c2c(NCc3ccccc3)nc3ccccn3c2=O)SC(=S)N1CC1CCCO1 (stereo not drawn)
 : 264, x

# Next entries follow.
[31] O=C1/C(=C/c2c(NCC3CCCO3)nc3ccccn3c2=O)SC(=S)N1C1CCCCC1 (stereo not drawn)
  GIV-Gai inh = 315
  HCMV NEC inh = x
[32] CCN(c1ccc(NC(=O)c2cc(Cl)c3c(c2)OCCCO3)cc1)C(C)C
  GIV-Gai inh = x
  HCMV NEC inh = -20
[33] Clc1cccc(N2CCN(c3ncnc4c3cnn4-c3ccccc3)CC2)c1
  GIV-Gai inh = 111
  HCMV NEC inh = x
[34] COC(=O)C1=C(CN2CCCCC2)NC(=O)NC1c1ccccc1C (stereo not drawn)
  GIV-Gai inh = 106
  HCMV NEC inh = 2
[35] Cn1c(SCc2nc3ccccc3n2CC(N)=O)nc2ccccc21
  GIV-Gai inh = 97
  HCMV NEC inh = -14
[36] COc1cc(C(O)c2cc(C(F)(F)F)cc(C(F)(F)F)c2)cc(OC)c1OC (stereo not drawn)
  GIV-Gai inh = 102
  HCMV NEC inh = -21
[37] COc1ccc(Cl)cc1C(=O)Nc1nc(-c2ccc(C)o2)cs1
  GIV-Gai inh = x
  HCMV NEC inh = -19
[38] O=C(c1ccc2ncsc2c1)N1CCCCC1
  GIV-Gai inh = x
  HCMV NEC inh = 13
[39] O=C(O)c1ccc2ncsc2c1
  GIV-Gai inh = x
  HCMV NEC inh = 71*
[40] CC(C)NCC(O)COc1ccccc1 (stereo not drawn)
  GIV-Gai inh = 104
  HCMV NEC inh = 25

[41] CC(COc1ccccc1)N(CCCl)Cc1ccccc1 (stereo not drawn)
  GIV-Gai inh = 99
  HCMV NEC inh = 89*!
[42] Cc1cc(C)n(-c2nc3cc(Cl)ccc3nc2Nc2ccc3c(c2)n(C)c(=O)n3C)n1
  GIV-Gai inh = 3.9*
  HCMV NEC inh = 5
[43] Cc1cc(C)n(-c2nc3cc(Cl)ccc3nc2Nc2ccc(C)c(F)c2)n1
  GIV-Gai inh = 103
  HCMV NEC inh = 0
[44] COc1ccc(C2C=C(c3ccc(C)cc3)Nc3c(C(=O)Nc4ccccc4)cnn32)cc1 (stereo not drawn)
  GIV-Gai inh = -67*
  HCMV NEC inh = x
[45] COc1ccc(C2=CC(c3cccc(OC)c3)n3ncc(C(=O)Nc4ccc(C)cc4)c3N2)cc1 (stereo not drawn)
  GIV-Gai inh = 108
  HCMV NEC inh = 2
[46] COC(=O)c1ccc(NC(=S)N(CC(C)C)CC(C)C)cc1
  GIV-Gai inh = x
  HCMV NEC inh = -2
